From ChEMBL document CHEMBL1152608, “Design, synthesis, and X-ray crystal structures of 2,4-diaminofuro[2,3-d]pyrimidines as multireceptor tyrosine kinase and dihydrofolate reductase inhibitors” (Bioorg Med Chem, 2009)

Sequences of proteins named here, by UniProt entry; tags and fusion partners are left off.
UniProt P00533, whole entry: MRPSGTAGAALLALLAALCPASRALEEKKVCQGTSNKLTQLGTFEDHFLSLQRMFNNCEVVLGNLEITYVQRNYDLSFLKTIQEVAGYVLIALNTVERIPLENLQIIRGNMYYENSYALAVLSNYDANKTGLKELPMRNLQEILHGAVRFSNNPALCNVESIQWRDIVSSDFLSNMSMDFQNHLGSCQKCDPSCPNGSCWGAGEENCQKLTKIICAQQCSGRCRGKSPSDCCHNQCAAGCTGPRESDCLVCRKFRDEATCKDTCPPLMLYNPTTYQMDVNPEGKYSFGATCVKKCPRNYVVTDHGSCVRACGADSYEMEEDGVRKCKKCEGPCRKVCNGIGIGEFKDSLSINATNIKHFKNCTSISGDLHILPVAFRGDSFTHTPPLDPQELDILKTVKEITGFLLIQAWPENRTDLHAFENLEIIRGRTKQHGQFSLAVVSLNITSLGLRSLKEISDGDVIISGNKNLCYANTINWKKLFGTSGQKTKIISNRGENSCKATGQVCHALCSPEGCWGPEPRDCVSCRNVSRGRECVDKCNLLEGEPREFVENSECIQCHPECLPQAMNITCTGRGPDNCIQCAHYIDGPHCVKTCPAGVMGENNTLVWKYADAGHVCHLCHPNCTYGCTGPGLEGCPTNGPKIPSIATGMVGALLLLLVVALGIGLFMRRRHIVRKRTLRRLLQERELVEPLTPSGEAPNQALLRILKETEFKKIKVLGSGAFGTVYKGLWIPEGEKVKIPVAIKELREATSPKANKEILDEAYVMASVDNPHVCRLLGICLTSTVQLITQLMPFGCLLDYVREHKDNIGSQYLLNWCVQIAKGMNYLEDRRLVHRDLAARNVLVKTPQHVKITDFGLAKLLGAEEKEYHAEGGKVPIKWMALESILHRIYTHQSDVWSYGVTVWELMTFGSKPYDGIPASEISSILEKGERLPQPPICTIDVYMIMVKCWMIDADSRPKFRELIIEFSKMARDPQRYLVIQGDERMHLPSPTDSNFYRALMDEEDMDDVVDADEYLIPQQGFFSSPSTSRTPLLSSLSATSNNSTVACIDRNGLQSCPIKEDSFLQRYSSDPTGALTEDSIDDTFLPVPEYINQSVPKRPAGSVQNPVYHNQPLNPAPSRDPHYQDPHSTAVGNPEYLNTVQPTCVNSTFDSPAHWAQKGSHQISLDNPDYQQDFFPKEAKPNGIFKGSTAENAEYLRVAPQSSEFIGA

How the values were obtained:
Dihydrofolate reductase [1] = molecular target: T1, Dihydrofolate reductase (Mus musculus, UniProt P00375); assay: Inhibition of mouse DHFR in presence of saturating levels of NADPH and DHFA
T1 sequence (P00375 whole entry): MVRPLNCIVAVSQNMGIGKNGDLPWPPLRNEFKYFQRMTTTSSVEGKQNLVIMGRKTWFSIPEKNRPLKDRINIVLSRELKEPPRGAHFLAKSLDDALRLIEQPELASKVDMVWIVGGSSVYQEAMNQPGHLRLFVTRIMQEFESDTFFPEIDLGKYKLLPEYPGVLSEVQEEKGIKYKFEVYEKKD

[2] = molecular target: T2, Bifunctional dihydrofolate reductase-thymidylate synthase (Toxoplasma gondii, UniProt Q07422); assay: Inhibition of Toxoplasma gondii DHFR in presence of saturating levels of NADPH and DHFA
T2 sequence (Q07422 whole entry): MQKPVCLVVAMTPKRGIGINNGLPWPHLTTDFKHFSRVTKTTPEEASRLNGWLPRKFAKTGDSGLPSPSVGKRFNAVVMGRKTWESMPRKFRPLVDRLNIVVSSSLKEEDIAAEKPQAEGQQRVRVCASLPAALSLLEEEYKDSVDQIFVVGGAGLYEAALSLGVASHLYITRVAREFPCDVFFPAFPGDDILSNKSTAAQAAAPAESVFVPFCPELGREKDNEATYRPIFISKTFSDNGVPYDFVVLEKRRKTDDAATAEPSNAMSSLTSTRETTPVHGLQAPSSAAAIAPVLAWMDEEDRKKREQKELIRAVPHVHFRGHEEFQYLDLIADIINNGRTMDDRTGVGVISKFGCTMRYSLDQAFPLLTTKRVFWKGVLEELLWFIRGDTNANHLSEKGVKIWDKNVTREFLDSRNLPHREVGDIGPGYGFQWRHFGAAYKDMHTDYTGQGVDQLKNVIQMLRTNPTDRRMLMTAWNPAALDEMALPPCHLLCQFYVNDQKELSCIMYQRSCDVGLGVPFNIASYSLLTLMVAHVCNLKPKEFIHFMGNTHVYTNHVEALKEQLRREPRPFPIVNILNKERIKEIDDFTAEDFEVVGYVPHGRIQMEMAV

Dihydrofolate reductase [3] = molecular target: T3, Dihydrofolate reductase (Rattus norvegicus, UniProt Q920D2); assay: Inhibition of rat liver DHFR in presence of saturating levels of NADPH and DHFA; format: tissue-based
T3 sequence (Q920D2 whole entry): T1 sequence (P00375 whole entry) with P27L, R85Q, R99K, I115V, G155E, V170I

[4] = molecular target: Epidermal growth factor receptor (Homo sapiens, UniProt P00533)
Dihydrofolate reductase [5] = molecular target: T3, Dihydrofolate reductase; assay: biochemical

| SMILES | IC50 (Dihydrofolate reductase [1]) | IC50 [2] | IC50 (Dihydrofolate reductase [3]) | IC50 [4] | Ki (Dihydrofolate reductase [5]) |
| --- | --- | --- | --- | --- | --- |
| COc1ccccc1/C(C)=C\c1coc2nc(N)nc(N)c12 | 3.9 µM | 3.94 µM | – | – | – |
| CCCC(=Cc1coc2nc(=N)[nH]c(N)c12)c1ccccc1OC (mixture of isomers) | – | – | 15.2 µM | 160 µM | 1.6 µM |
| COc1ccccc1/C(C)=C/c1coc2nc(N)nc(N)c12 | – | 4 µM | – | – | – |
| COc1ccccc1C(=Cc1coc2nc(=N)[nH]c(N)c12)C(C)C (mixture of isomers) | – | – | – | 111 µM | – |

Positions count from the first letter of the chain named.
